Legend:
[1] = tested on: A549 human lung epithelial cells; test: MTT cell proliferation (cytotoxicity) assay; settings: 100 μg/ml peptide, 24 h
G. mellonella larvae = test: Peptide toxicity in Galleria mellonella larvae; settings: 10 μg peptide per larva, 48 h

`CC(C)C[C@H](NC(=O)[C@H](CCCCN)NC(=O)[C@H](CCC(N)=O)NC(=O)[C@H](CCCCN)NC(=O)[C@H](Cc1ccccc1)NC(=O)[C@H](CCCCN)NC(=O)[C@H](CCCCN)NC(=O)[C@H](Cc1ccccc1)NC(=O)[C@H](Cc1c[nH]cn1)NC(=O)[C@H](CCC(N)=O)NC(=O)[C@H](CO)NC(=O)[C@H](Cc1ccccc1)NC(=O)[C@H](Cc1c[nH]c2ccccc12)NC(=O)[C@H](CC(N)=O)NC(=O)[C@H](CCCNC(=N)N)NC(=O)[C@H](Cc1ccccc1)NC(=O)[C@@H](N)CCCCN)C(=O)N[C@@H](CCCCN)C(=O)N[C@@H](CC(N)=O)C(=O)N[C@H](C(=O)N[C@@H](Cc1ccccc1)C(=O)N[C@@H](C)C(=O)O)[C@@H](C)O` [GATR-3] was tested, and the “suppression of cell proliferation” value [1] was “some statistically significant suppression of cell proliferation” and the “death of larvae (toxicity)” value (G. mellonella larvae) was “not found to have significant death”.

`CC(C)C[C@H](NC(=O)[C@H](CCCNC(=N)N)NC(=O)[C@H](CCC(N)=O)NC(=O)[C@H](CCCNC(=N)N)NC(=O)[C@H](Cc1c[nH]c2ccccc12)NC(=O)[C@H](CCCNC(=N)N)NC(=O)[C@H](CCCNC(=N)N)NC(=O)[C@H](Cc1c[nH]c2ccccc12)NC(=O)[C@H](Cc1c[nH]cn1)NC(=O)[C@H](CCC(N)=O)NC(=O)[C@H](CO)NC(=O)[C@H](Cc1ccccc1)NC(=O)[C@H](Cc1c[nH]c2ccccc12)NC(=O)[C@H](CC(N)=O)NC(=O)[C@H](CCCNC(=N)N)NC(=O)[C@H](Cc1ccccc1)NC(=O)[C@@H](N)CCCCN)C(=O)N[C@@H](CCCNC(=N)N)C(=O)N[C@@H](CC(N)=O)C(=O)N[C@H](C(=O)N[C@@H](Cc1c[nH]c2ccccc12)C(=O)N[C@@H](C)C(=O)O)[C@@H](C)O` [GATR-6] was tested, and the “suppression of cell proliferation” value [1] was “some statistically significant suppression of cell proliferation” and the “death of larvae (toxicity)” value (G. mellonella larvae) was “not found to have significant death”.
